Laboratory results as given in US6593303B1, “Anti-tumor synergetic composition” (Pharmacia & Upjohn, S.p.A., priority 1999, dated 2003).

Test system: disseminated L1210 murine leukemia
Experiment: Antileukemic activity against disseminated L1210 murine leukemia (cells injected iv)
Settings: Oxaliplatinum alone 8 mg/kg/day ip day +3

O=C1[O][Pt]2([NH][C@@H]3CCCC[C@H]3[NH]2)[O]C1=O [Oxaliplatinum, Oxaliplatin]
Tox (number of toxic deaths/number of mice): 0/10
